Test results taken from paper PMC8691691 (ACS Chemical Neuroscience, 2021).
Changes are numbered by the printed parent chain.

How the values were obtained:
GlyT2 S481G mutant = target: T1, GlyT2 S481G mutant (Rattus norvegicus, UniProt P58295, S481G); assay: [3H]glycine transport by GlyT2 mutant in COS7 cells; assay type: cell-based
T1 construct: expressed in transfected cells; host or cells: COS7
T1 sequence (P58295 1-799 S481G): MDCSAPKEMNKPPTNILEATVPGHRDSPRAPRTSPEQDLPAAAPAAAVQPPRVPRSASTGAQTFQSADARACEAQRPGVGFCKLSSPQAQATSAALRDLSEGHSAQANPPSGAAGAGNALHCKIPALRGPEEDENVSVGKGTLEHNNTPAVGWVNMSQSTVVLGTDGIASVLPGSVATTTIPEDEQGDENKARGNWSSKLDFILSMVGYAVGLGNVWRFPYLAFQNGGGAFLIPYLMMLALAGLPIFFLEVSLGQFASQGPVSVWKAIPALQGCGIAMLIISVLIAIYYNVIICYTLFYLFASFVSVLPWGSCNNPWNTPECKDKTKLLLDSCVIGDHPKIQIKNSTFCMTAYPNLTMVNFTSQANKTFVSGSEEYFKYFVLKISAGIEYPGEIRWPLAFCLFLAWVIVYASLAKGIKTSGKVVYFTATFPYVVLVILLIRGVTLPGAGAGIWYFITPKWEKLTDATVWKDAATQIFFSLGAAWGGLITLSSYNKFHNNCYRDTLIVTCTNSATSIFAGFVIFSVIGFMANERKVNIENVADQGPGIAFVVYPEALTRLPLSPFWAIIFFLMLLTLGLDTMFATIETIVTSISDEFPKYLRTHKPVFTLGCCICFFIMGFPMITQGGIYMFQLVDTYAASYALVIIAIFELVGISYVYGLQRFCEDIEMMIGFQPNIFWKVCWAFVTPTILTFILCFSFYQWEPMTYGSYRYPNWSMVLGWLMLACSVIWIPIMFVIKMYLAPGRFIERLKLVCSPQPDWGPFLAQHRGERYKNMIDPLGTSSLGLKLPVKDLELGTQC

GlyT2 T584L mutant = target: T2, GlyT2 T584L mutant (Rattus norvegicus, UniProt P58295, T584L); assay: as above; assay type: cell-based
T2 construct: expressed in transfected cells; host or cells: COS7
T2 sequence (P58295 1-799 T584L): T1 sequence (P58295 1-799 S481G) with G481S, T584L

Work on NCC(=O)O [Gly, glycine] yielded an EC50 (GlyT2 S481G mutant) of 149 ± 11 µM and an EC50 (GlyT2 T584L mutant) of 1200 ± 189 µM.
